Assay results published in paper PMC6156078, “Thalidomide promotes degradation of SALL4, a transcription factor implicated in Duane Radial Ray syndrome” (eLife, 2018).

Chains of the proteins cited; added tags and fusions are not shown. Lines headed by an entry give the natural chain unless they say otherwise; changes in a name come on top. Residues count along the entry.
UniProt Q8NEG4, 2-500 limits assumed: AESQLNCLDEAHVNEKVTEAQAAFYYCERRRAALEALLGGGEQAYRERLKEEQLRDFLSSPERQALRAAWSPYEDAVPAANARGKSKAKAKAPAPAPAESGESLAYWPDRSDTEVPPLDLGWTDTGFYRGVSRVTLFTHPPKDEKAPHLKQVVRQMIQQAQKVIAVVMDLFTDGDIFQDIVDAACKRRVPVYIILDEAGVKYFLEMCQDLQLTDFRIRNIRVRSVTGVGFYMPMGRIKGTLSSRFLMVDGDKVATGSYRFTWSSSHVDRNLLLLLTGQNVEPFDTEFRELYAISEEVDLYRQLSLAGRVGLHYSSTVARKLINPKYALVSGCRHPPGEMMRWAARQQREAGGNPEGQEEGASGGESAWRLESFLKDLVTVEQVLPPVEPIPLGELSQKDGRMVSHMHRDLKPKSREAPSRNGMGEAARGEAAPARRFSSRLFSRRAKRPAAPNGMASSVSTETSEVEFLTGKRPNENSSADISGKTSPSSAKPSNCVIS
UniProt P48729, 2-365 isoform P48729-2: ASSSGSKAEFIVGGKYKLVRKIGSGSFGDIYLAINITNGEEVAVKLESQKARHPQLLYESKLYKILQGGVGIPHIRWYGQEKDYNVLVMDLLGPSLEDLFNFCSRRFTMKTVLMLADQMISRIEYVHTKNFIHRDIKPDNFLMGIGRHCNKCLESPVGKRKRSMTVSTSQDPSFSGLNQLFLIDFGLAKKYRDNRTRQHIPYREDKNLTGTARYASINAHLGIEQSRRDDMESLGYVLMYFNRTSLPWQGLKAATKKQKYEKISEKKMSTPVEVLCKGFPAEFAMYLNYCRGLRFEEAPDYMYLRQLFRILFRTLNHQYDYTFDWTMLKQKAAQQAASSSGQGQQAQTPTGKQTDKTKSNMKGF
UniProt Q9UJQ4: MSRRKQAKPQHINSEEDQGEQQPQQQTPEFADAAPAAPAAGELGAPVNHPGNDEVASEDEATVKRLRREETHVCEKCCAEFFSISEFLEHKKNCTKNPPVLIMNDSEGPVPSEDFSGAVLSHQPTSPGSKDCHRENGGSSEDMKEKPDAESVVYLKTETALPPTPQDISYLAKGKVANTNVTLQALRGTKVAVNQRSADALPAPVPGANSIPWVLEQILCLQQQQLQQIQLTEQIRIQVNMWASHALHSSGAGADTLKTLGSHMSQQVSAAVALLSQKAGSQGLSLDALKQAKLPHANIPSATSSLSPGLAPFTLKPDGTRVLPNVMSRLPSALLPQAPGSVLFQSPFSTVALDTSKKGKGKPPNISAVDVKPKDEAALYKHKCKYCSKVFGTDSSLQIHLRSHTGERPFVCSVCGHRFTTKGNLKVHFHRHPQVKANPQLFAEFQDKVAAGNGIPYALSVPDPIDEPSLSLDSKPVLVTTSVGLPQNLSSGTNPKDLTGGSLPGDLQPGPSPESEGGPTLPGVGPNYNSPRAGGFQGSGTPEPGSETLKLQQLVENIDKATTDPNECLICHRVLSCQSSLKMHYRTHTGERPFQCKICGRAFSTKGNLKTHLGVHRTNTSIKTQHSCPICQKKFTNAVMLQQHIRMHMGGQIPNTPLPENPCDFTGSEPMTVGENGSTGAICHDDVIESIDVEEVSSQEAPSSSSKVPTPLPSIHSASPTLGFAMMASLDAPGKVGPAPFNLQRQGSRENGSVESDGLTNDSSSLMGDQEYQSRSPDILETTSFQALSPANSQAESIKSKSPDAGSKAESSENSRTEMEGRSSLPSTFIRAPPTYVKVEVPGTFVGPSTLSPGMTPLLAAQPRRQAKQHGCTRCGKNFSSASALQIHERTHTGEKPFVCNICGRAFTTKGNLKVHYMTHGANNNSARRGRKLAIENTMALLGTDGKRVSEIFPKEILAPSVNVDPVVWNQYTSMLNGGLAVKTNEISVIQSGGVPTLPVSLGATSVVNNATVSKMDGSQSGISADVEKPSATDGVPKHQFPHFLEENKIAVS

Legend:
FAM83F = FAM83F (Homo sapiens, UniProt Q8NEG4); assay: TMT proteomics H9 hESC: FAM83F abundance; format: cell-based; settings: H9 hES cells, 5 h vs DMSO; thalidomide 10 µM, lenalidomide 5 µM, pomalidomide 1 µM
Text: (§1) We established a mass spectrometry-based workflow (Figure 1—figure supplement 1A) to detect IMiD-induced protein degradation in hESC.
(§2) Proteins were precipitated using methanol/chloroform.

CSNK1A1 = CSNK1A1 (Homo sapiens, UniProt P48729); assay: TMT proteomics Kelly cells: CSNK1A1 abundance; settings: 5 h vs DMSO, thalidomide 10 µM, lenalidomide 5 µM, pomalidomide 1 µM
SALL4 [1] = biological target: T1, SALL4 (Homo sapiens, UniProt Q9UJQ4); assay: TMT proteomics H9 hESC: SALL4 abundance; format: cell-based; settings: H9 hES cells, 5 h vs DMSO; thalidomide 10 µM, lenalidomide 5 µM, pomalidomide 1 µM
Text: as §1, §2

SALL4 [2] = biological target: T1, SALL4; assay: TMT proteomics Kelly cells: SALL4 abundance; settings: 5 h vs DMSO, thalidomide 10 µM, lenalidomide 5 µM, pomalidomide 1 µM
[3] = typical dose 200–400 mg thalidomide, 25 mg lenalidomide, 2 mg pomalidomide; ref Chen et al., 2017; Hoffmann et al., 2013; Teo et al., 2004; read-out: maximum plasma concentration (Cmax); cited from earlier work
RAB28 [4] = biological target: T2, RAB28 (Homo sapiens, UniProt P51157); assay: TMT proteomics H9 hESC: RAB28 abundance; format: cell-based; design: protein abundance was analyzed using TMT quantification mass spectrometry; endogenous in cells; host or cells: Kelly, MM1s, H9 hESC, SK-N-DZ cells; settings: H9 hES cells, 5 h vs DMSO; thalidomide 10 µM, lenalidomide 5 µM, pomalidomide 1 µM
Text: as §1, §2

SALL4 [5] = biological target: T1, SALL4; assay: Western blot of SALL4 in Kelly, SK-N-DZ, HEK293T and H661 cells; settings: increasing concentrations, 24 h
RAB28 [6] = biological target: T2, RAB28; assay: TMT proteomics Kelly cells: RAB28 abundance; settings: 5 h vs DMSO, thalidomide 10 µM, lenalidomide 5 µM, pomalidomide 1 µM
SALL4 [7] = biological target: T1, SALL4; assay: Western blot of SALL4 in H9 hESC; format: cell-based; design: endogenous in cells; host or cells: Kelly, H9 hESC, SK-N-DZ cells; settings: increasing doses, 24 h

Nc1cccc2c1CN(C1CCC(=O)NC1=O)C2=O (stereo not drawn) [lenalidomide]
logFC FAM83F (FAM83F): -1.411 | logFC CSNK1A1 (CSNK1A1): -0.4774 | logFC SALL4 (SALL4 [1]): -0.6197 | logFC SALL4 (SALL4 [2]): -0.759 | Cmax [3]: ~2500 nM | logFC RAB28 (RAB28 [4]): -0.7139 | SALL4 protein levels (western blot) (SALL4 [5]): dose-dependent decrease in SALL4 protein levels | logFC RAB28 (RAB28 [6]): -0.4827 | SALL4 protein levels (western blot) (SALL4 [7]): dose-dependent decrease in protein levels
